## Ab-14 light chain CDR variants: yeast mating affinities

From the AlphaSeq antibody data of Li et al. 2023 (doi:10.1038/s41467-023-39022-2), copy in the FLAb collection.

All variants were tested on one target, the spike HR2 peptide PDVDLGDISGINAS (SARS-CoV-2).

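The parent was found by panning a naive human phage display library on the peptide. These sequences belong to a second round, designed from the earlier measurements on random variants of the parent. Group labels follow the data file (Ctrl: baseline library sampled from a position-specific scoring matrix, with some repeated check sequences; Rand: our label for a block that the file lists under HC and that is probably the random mutants of the ten best first-round binders; En: ensemble of fine-tuned language models; GP: Gaussian process model; GPLM: also part of the Gaussian process libraries; HC: hill climbing; Gen: genetic algorithm; Gibbs: Gibbs sampling; a sequence that several methods proposed may carry one label only). In AlphaSeq, yeast of one mating type display the scFv and yeast of the other type display the target. After mating in shaken culture at 30 °C for 16 h, diploids were selected and their barcode pairs sequenced. Each replicate has its own calibration line, from reference interactions of the BCL2 family. Mating was done six times.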

Ab-14 is the parent antibody, in scFv form: VH, then the linker GGGGSGGGGSGGGGS, then VL. The heavy chain is unchanged in all variants.
VH: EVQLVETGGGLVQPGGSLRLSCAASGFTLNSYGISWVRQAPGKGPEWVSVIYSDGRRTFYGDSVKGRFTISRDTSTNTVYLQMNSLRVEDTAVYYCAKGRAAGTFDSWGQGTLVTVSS
VL: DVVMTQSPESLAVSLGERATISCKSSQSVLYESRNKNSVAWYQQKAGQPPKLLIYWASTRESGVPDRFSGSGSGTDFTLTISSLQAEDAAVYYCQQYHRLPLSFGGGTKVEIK

The parent's light chain CDRs are KSSQSVLYESRNKNSVA, WASTRES, QQYHRLPLS; each variant's own CDRs replace them letter for letter. Affinities are written as log10 Kd with Kd in nM; a lower number is a better binder. An entry "nd" has no value in the source: the pair was not observed among the diploids in that replicate. This suggests poor binding but is not conclusive. Nonspecific signal, from three strains lacking the peptide, appeared in 4% of pairings of all light chain designs, centred on 2.64 (5% of these signals below 1.59); values are not corrected for it. Values of this round are not directly comparable with the first-round values of the same sequences. The parent sequence was in this pool as ten entries: three were never detected, three once, and four in most replicates, with averages from 0.34 to 2.37. The authors' rule: three or more of the six replicates give a measured affinity, fewer mean a poor binder.

CDR-L1 | CDR-L2 | CDR-L3 | group | log10 Kd, replicates
NISIEDVSEHNQANNVA | STDCRCS | QQYFHLPLM | En_Gibbs | 0.73 0.72 0.63 0.29 0.32 0.76
KTGQGVLYESRNKNSVA | GASVRES | QQYHRLPLS | GP_HC | -0.01 0.05 -0.02 -0.12 -0.35 -0.16
KLSQSVLYESRNKNSVA | EASTRES | QQYHRLPSS | GP_HC | 0.59 0.60 -0.13 0.16 -0.33 -0.04
KSSQSVLMESRNKNSVA | DASTRES | QQYHRLPLS | GP_HC | 0.13 -0.23 -0.32 -0.23 -0.31 0.07
KLEQSMLYESRNKNSVA | NASQRLS | QQYHRLPLS | GP_Gen | -0.13 -0.18 -0.28 -0.55 -0.42 -0.28
KLEQGDLMESRNKNSVA | HASTRES | QQYHRLPLS | GP_Gibbs | -0.25 -0.31 -0.36 -0.12 0.00 -0.17
KVSEFMRGLTQRKDSIA | DNVTRQN | QQYDRLPLS | En_Gen | 1.27 1.04 1.01 0.62 1.16 1.01
KLSATYRFESQNKNSIA | EMTTREQ | QCYHRLPLS | En_HC | 1.52 2.42 nd 2.04 0.90 3.21
TLYGLSVSMSKNTNSVA | EMTTREK | QQYDRLPLV | En_Gen | 1.19 0.96 1.05 1.09 1.31 1.52
QIEIHGMDENQMYNHIA | NENIREF | QQYWHLPLS | En_Gibbs | 0.97 0.73 0.64 0.33 1.23 nd
KFEGSWLYESRNGNSVA | QASTRSS | QQYHRLPLS | GP_Gibbs | 0.41 0.32 0.30 0.24 0.28 0.52
KLSQSKGGESRNPNSVA | HASTRER | QQYHRLPLS | GP_Gibbs | 0.36 0.12 0.11 0.13 0.04 0.54
KFSYSVLYEDRNQNSVA | NASQREQ | QQYHRLPLS | GP_Gibbs | 0.70 0.76 0.48 0.30 0.87 0.59
TITGEQSMSTQGNWSIA | QAEQKVH | QQYDRLPLA | En_Gibbs | nd nd nd nd nd nd
HISMSMNWLSRNKNSIA | EESTRED | QQYDRLPLS | En_HC | nd 2.40 1.55 2.63 1.47 2.77
KLQNSTLYESRQKNSVA | WASTRES | QQYHRLPLS | GP_HC | 0.88 0.92 1.16 0.85 0.69 1.20
KIGMTLNFEEMKKNNVA | DLVAREN | QQYHRLPLS | En_Gen | 1.00 0.95 0.06 1.26 1.47 0.02
KIDQGALYESRNKNSVA | GASTRES | QQYHRLPLS | GP_HC | -0.29 -0.33 -0.26 -0.53 -0.55 -0.27
MISQLMNMGQFAINSVA | QASIRNQ | QQYDRLPLI | En_Gen | nd nd nd 0.54 nd nd
QLSSITGHMQMIKNNVA | EMETREN | QQYDRLPLA | En_Gen | 0.91 0.98 0.91 0.92 1.08 1.07
KLPQEVWYQSRMKNSVA | DASTREQ | QQYHRLPLS | GP_Gibbs | 0.03 0.16 0.07 0.08 0.01 0.22
KLQGSVLYESRNKNAVA | GASQREK | QQYHRLPLS | GP_Gibbs | 0.00 -0.09 0.09 -0.29 -0.12 0.07
QIQFLDVQYGVKEQAVA | EENQRDQ | QHYFRLPLS | En_Gibbs | 1.62 1.58 1.61 1.23 1.56 1.51
KLSQSVLYESRNKNQVA | GASTRES | QQYHRLPLS | GP_Gen | -0.02 -0.24 -0.29 -0.41 -0.42 -0.10

Further variants, results first:

log10 Kd, replicates | CDR-L1 | CDR-L2 | CDR-L3 | group
1.22 1.87 1.04 1.41 1.32 1.21 | LSSQSVLDESANKNMVA | EASTREC | QQYHRLPLS | Ctrl
1.07 0.98 1.48 1.01 0.86 1.01 | KISMSVDYMSATHSSVA | QTSTREE | QQYHRLPLS | En_HC
0.83 1.49 0.98 1.12 0.62 2.08 | KISYMGEHFSTNHSAIA | QASTREL | QQYHRLPIS | En_HC
0.01 -0.07 -0.11 -0.36 -0.33 -0.55 | KISQFYEMESRNKNSVA | SASTRMS | QQYHRLPLS | GP_Gibbs
0.34 -0.11 -0.02 0.17 0.14 0.12 | KSSQSYLYESRNKNSVA | EASTRES | QQYHRLPLM | GP_HC
nd nd nd nd 2.10 1.12 | HISYSMQHLSKNKNSVA | NQQTREQ | QQYHRLPLS | En_HC
0.46 0.29 0.16 0.15 0.30 0.20 | KSSQSVLYESRNVNNVA | GASTRES | QQYHRLPLS | Ctrl
-0.21 -0.33 -0.32 -0.49 -0.19 -0.30 | KMSQSVLYEERNKNSVA | NASQRES | QQYHRLPLS | GP_Gen
0.84 0.79 0.28 0.58 0.49 0.77 | HMSAVTLMGQRHVNSVA | QMTTRES | QQYDHLPLS | En_Gen
0.60 0.50 0.47 0.32 0.48 0.71 | KVSGSQLYESRNSNAVA | NASLRMS | QQYHRLPLS | GP_Gibbs
1.18 0.63 0.91 1.07 1.18 1.66 | KLSQVTGHLSVEKNNVA | EMETREE | QQYDRLPLS | En_Gen
-0.34 -0.31 -0.03 -0.45 -0.19 -0.14 | KSSQSKLYESRNKNSVA | GASTRES | QQYHRLTLS | GPLM_HC
1.52 1.38 1.17 1.37 1.00 2.09 | SLMQVGGYESNNHSSIA | DLRTRES | QQYHRLPLS | En_HC
0.42 0.49 0.42 0.29 0.27 0.40 | KASQSWLYESRNKNSVA | GASTRES | QQYHRLPLI | GP_HC
0.48 0.11 -0.24 0.06 0.19 0.16 | KLSQSMLYESRNSNSVA | NASTRMS | QQYHRLPLS | GP_Gen
-0.13 -0.36 -0.34 -0.51 -0.28 -0.22 | KISQSVGYESRNKNSVA | NASQRMQ | QQYHRLPLS | GP_Gibbs
1.77 1.27 1.09 1.68 1.29 1.86 | KVSEFMKGLMMRKDSIA | DNNTRIN | QQYDRLPLS | En_Gen
2.91 2.91 3.21 3.20 2.67 3.90 | KLSIFSQVESINKSNVA | EMVTRES | QQYDRLPLS | En_HC
0.41 0.03 0.17 -0.19 0.00 0.19 | KSDQSWLYESRNKNSVA | HASTREQ | QQYHRLPLS | GP_HC
nd nd nd nd nd nd | SQSQSVLDESRNKNSVA | EASTRES | KQYHRHPLS | Ctrl
nd nd nd nd 2.10 nd | TISELYNQALGIRNNVA | NNQTRED | QQYDRLPLS | En_Gen
0.05 0.06 0.12 -0.10 -0.13 0.16 | KLSQSVLYESRNKNSVA | NASQRWS | QQYHRLPLS | GP_Gen
0.94 0.80 0.43 0.49 0.77 0.35 | GLSNQETEQIAHANSIA | DRDERDV | QQYAHLPLI | En_Gibbs
0.64 0.31 0.42 0.60 0.88 0.82 | HMSMLTLGGLKERNSVA | QMTTREN | QQYDHLPLS | En_Gen
1.39 0.56 1.11 0.62 0.71 1.08 | KSLQSVLYEERNKCSVA | HASTRED | QQYHRLPLS | Rand

Excerpt, the first 6 entries:

CDR-L1	CDR-L2	CDR-L3	group	log10 Kd, replicates
NISIEDVSEHNQANNVA	STDCRCS	QQYFHLPLM	En_Gibbs	0.73 0.72 0.63 0.29 0.32 0.76
KTGQGVLYESRNKNSVA	GASVRES	QQYHRLPLS	GP_HC	-0.01 0.05 -0.02 -0.12 -0.35 -0.16
KLSQSVLYESRNKNSVA	EASTRES	QQYHRLPSS	GP_HC	0.59 0.60 -0.13 0.16 -0.33 -0.04
KSSQSVLMESRNKNSVA	DASTRES	QQYHRLPLS	GP_HC	0.13 -0.23 -0.32 -0.23 -0.31 0.07
KLEQSMLYESRNKNSVA	NASQRLS	QQYHRLPLS	GP_Gen	-0.13 -0.18 -0.28 -0.55 -0.42 -0.28
KLEQGDLMESRNKNSVA	HASTRES	QQYHRLPLS	GP_Gibbs	-0.25 -0.31 -0.36 -0.12 0.00 -0.17